scFv variants of Ab-14 (light chain) against a SARS-CoV-2 spike peptide

Values reported by Li et al. 2023, doi:10.1038/s41467-023-39022-2 (FLAb copy).

The target is the same throughout: PDVDLGDISGINAS, from the HR2 region of SARS-CoV-2 spike.

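Phage display of a naive human antibody library on the peptide gave the parent. Designed CDR sequences, proposed from the first random library and measured here. Their group label is 14L_En_Gibbs (En: ensemble of fine-tuned language models; Gibbs: Gibbs sampling). Affinity was read by AlphaSeq, a pooled yeast mating assay with surface-displayed partners. Binding brings cells together so that they mate, and sequencing counts the barcode pairs among the diploids. Read counts were normalised to the haploid input and turned into Kd by a linear fit to BCL2-family pairs of known affinity, for each replicate. Mating was done six times.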

The variants keep the heavy chain, the linker and the frameworks of Ab-14 (scFv order VH, a (GGGGS)3 linker, VL).
VH: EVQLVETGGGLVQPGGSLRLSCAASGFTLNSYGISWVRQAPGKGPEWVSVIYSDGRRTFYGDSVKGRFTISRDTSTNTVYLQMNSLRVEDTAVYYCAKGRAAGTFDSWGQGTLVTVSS
VL: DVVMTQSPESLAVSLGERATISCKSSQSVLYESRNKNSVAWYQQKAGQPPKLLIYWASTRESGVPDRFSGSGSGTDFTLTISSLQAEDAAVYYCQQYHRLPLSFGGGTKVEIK

Variants are written as CDR1, CDR2 and CDR3 of the light chain (limits as in the source). Parent: KSSQSVLYESRNKNSVA, WASTRES, QQYHRLPLS. Numbers give log10(Kd / nM), so 0 is 1 nM and 3 is 1 µM. Smaller is tighter. A pair that was not seen in that replicate is written "ND"; this usually means weak binding, but a binder can also be missed. Values of this round are not directly comparable with the first-round values of the same sequences.

TLDNHQAGYYQKNNNIA / EMNMRRY / QQYGILPLS: 1.82, 1.35, 1.31, 1.16, 1.32, 1.65 (controls 0 of 18).
MFDQQTMNEMDKNNAVA / EVTHLVN / QQYAQLPLI: ND, 2.76, 0.93, 1.46, 1.80, 1.97 (controls 0 of 18).
QLRDDIWADGMNKGSIA / ANEVSKD / QQYNRLPLS: ND, ND, ND, ND, ND, ND (controls 0 of 18).
KLSSHYFESYGERQAVA / DNEAIMN / QQYHYLPLS: 2.06, 3.72, 2.43, 2.27, 2.30, 1.82 (controls 0 of 18).
LLSGMVEEQITRQNNIA / EGEFRDM / QQYNRLPLS: 0.95, 0.25, 0.58, 0.25, 0.57, 0.80 (controls 0 of 18).
TLQDWGIYGMENGNRIA / ERSKLEW / QQYGRLPLS: 0.46, 0.47, 1.05, 0.51, 1.29, 0.04 (controls 1 of 18).
KLFDETSSEQVNARAVA / DSHTVSE / QQYHMLPLA: 1.46, 0.25, 1.29, 0.40, 1.17, 1.07 (controls 0 of 18).
QLSLMENHMGDRMHSVA / DTNQAKT / QDYFRLPLM: ND, 1.76, 3.20, ND, ND, ND (controls 0 of 18).
QIAMEMYHDLNDAQNVA / DAMTEIP / QQYNRLPLS: ND, ND, ND, ND, ND, ND (controls 0 of 18).
TLFEGRSYWDGDERNIA / NARMRED / QDYARLPLV: 1.21, 1.14, 1.55, 1.75, 1.92, 1.52 (controls 0 of 18).
KIQHTHVGNEKKMESIA / QGDQRCQ / QSYDRLPLS: 1.00, 0.35, 0.44, 0.58, 0.69, 0.53 (controls 1 of 18).
SLMNLMGGIEEMKNSIA / NQETGMR / QQYAHLPLV: 2.33, ND, ND, ND, 2.32, ND (controls 1 of 18).
QLQMDPGESLRSTHSIA / DVNIKDM / QQYARLPLA: 0.42, 0.16, 0.07, 0.04, 0.18, 0.27 (controls 0 of 18).
VLSDTIENWADEADNIA / DATETSG / QQYYRLPLS: ND, 3.05, 1.72, 2.44, 2.21, ND (controls 2 of 18).
TMLHELIQDDPMYNNVA / DGSLKTA / QQYYRLPLS: ND, 0.99, 2.37, 1.99, 0.63, 1.72 (controls 1 of 18).
QLFHKWGQLDNIAYNVA / DATTVID / QQYMRLPIT: 1.82, ND, 1.78, 0.73, 1.39, 1.64 (controls 0 of 18).
KLWQDMYNGRNQANAVA / EGNILAN / QQYARLPFL: 0.32, 0.25, 0.41, 0.20, 0.31, 0.76 (controls 2 of 18).
SLRHMILDWDNKMQNIA / DVHMREQ / QQYFRLPIV: 1.24, 0.62, 0.92, 0.80, 1.40, 1.85 (controls 0 of 18).
KLDYLNGYSDIGGDSIA / DVSTAGM / QQYIRLPLS: 1.90, 0.94, 1.31, 0.57, 1.44, 1.60 (controls 1 of 18).
DMTVQFNGASNIQNSVA / HGVEKID / QQYVRLPLA: 0.76, 0.76, 0.05, 0.54, 0.47, 1.03 (controls 0 of 18).
SLYEAMQTGKLRTSAIA / DVNQQMR / QQYNRLPLM: 0.19, -0.04, -0.16, -0.06, 0.01, 0.09 (controls 1 of 18).
FMDFQMLEWQYDANNIA / GATLSVE / QQYGRLPLT: 2.27, 1.93, 1.45, 1.31, 0.72, 1.51 (controls 1 of 18).
HVSSMDMEDGGIKHSVA / DMKITER / QQYMRLPLS: 0.64, 0.38, 0.18, -0.18, 0.59, -0.15 (controls 0 of 18).
SLFFNDDQLQEQSNNIA / HASLRSV / QQYMHLPLV: 0.62, 0.51, 0.45, 0.63, 0.52, 0.77 (controls 0 of 18).
HISSMDMHDGGIIHNVA / DTGVTSR / QQYSRLPLI: 0.46, 0.27, 0.44, 1.38, 0.65, 0.65 (controls 0 of 18).
KLDYLNHYSDIGGNSIA / DVSTAGM / QQYIRLPLS: 0.40, 0.19, 0.55, -0.03, 0.34, 0.63 (controls 1 of 18).
NLNTEYVTGTSNWNNIA / HGSMVEA / QQYFQLPIG: 1.53, 0.87, 1.22, 0.48, 0.67, 1.45 (controls 0 of 18).
IMSESQERDASRLNNIA / DDYTRAT / QQYARLPLS: 0.70, 0.42, 0.39, 0.64, 0.44, 0.95 (controls 0 of 18).
RMNKFMSEITGARNSIA / GAEHLAQ / QHYHRLPLS: 1.25, 0.52, 1.06, 0.74, 0.94, 0.91 (controls 0 of 18).
MMLSHSVEVQNIQNAVA / EASMVYD / QQYVSLPLS: ND, ND, ND, ND, ND, ND (controls 0 of 18).
NISYLQGEPTNSVNNVA / QTSKRAH / QQYQHLPLC: 0.91, 0.78, 0.78, 0.76, 0.81, 1.33 (controls 1 of 18).
HVSSMDMNDGGIKKSVA / DDKETER / QQYMRLPLS: 1.09, 1.47, 1.17, 0.97, 1.47, 2.57 (controls 0 of 18).

Top 4 of the variants detected in all replicates, tightest first:

CDR-L1	CDR-L2	CDR-L3	log10 Kd (nM) by replicate	empty controls
SLYEAMQTGKLRTSAIA	DVNQQMR	QQYNRLPLM	0.19, -0.04, -0.16, -0.06, 0.01, 0.09	1/18
QLQMDPGESLRSTHSIA	DVNIKDM	QQYARLPLA	0.42, 0.16, 0.07, 0.04, 0.18, 0.27	0/18
HVSSMDMEDGGIKHSVA	DMKITER	QQYMRLPLS	0.64, 0.38, 0.18, -0.18, 0.59, -0.15	0/18
KLDYLNHYSDIGGNSIA	DVSTAGM	QQYIRLPLS	0.40, 0.19, 0.55, -0.03, 0.34, 0.63	1/18

Of ten entries with the parent sequence, four were seen in most replicates (averages 0.34 to 2.37), three in one and three in none, so single entries are noisy. In the paper, a design with two or fewer of six values counts as a poor binder. Empty control strains, which show no peptide, gave a signal in 4% of pairings with all light chain designs; the median was 2.64 and 95% of these signals were weaker than 1.59. No background was subtracted. For each scFv, signals with the empty controls are counted beside the result.